Measured values taken from US6004965A, “Sulfonamides” (Hoffmann-La Roche Inc., priority 1994, dated 1999).

Amino acid sequences for entries named in this document (tags omitted). Residues count along the entry.
UniProt P26684, 21-426: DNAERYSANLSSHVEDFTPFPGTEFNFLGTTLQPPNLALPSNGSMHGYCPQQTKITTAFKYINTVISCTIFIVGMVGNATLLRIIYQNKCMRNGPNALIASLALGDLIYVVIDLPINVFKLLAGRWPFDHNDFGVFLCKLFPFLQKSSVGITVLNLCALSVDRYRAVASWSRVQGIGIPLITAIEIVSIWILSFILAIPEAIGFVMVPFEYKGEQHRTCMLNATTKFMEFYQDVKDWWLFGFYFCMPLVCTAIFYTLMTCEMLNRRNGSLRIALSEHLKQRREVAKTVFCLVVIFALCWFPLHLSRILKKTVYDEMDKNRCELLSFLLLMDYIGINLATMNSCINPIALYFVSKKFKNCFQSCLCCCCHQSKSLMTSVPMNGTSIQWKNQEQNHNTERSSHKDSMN

Biological target: T1, endothelin-induced contractions in isolated rat aorta rings (Rattus norvegicus, UniProt P26684)
T1 construct: cut out from the thorax aorta of adult Wistar-Kyoto rats; from tissue; host or cells: thoracic aorta rings of adult Wistar-Kyoto rats, endothelium removed
Assay: Inhibition of endothelin-induced contractions in isolated rat aorta rings
Format: cell-based, rat (Wistar-Kyoto)
Details: in the absence of test compounds; read-out: EC50 of endothelin in the absence of test compounds (half-maximum contraction)
Experimental: Rings with a length of 5 mm were cut out from the thorax aorta of adult Wistar-Kyoto rats. The endothelium was removed by lightly rubbing the internal surface. Each ring was immersed at 37° C. in 10 ml of Krebs-Henseleit solution in an isolated bath while gassing with 95% O2 and 5% CO2. The isometric stretching of the rings was measured. The rings were stretched to a pre-tension of 3 g.
The corresponding pA2 value, which is a measure of the activity of the test compound, was calculated using a computer programme according to the following equation from the "dose ratio" DR for each individual dosage-activity curve.
pA2 =log(DR-1)-log(antagonist-concentration)

endothelin [reference compound]
EC50: 0.3 nM
